For test [1], the target named is T1, human 5-hydroxytryptamine-2C (h5-HT2C) receptor (Homo sapiens, UniProt P28335).
T1 construct: expressed in transfected cells; host or cells: CHO (Chinese Hamster Ovary) cells; membrane preparation
Kind of test: [125I]DOI binding to membranes of CHO cells expressing h5-HT2C receptor. The conditions noted are these: reference compounds; 95% confidence interval in brackets; [125I]DOI displacement.

Protein sequences, listed by entry. Tags and fused reporters are not part of them. Residues count along the entry.
UniProt P28335, 33-458: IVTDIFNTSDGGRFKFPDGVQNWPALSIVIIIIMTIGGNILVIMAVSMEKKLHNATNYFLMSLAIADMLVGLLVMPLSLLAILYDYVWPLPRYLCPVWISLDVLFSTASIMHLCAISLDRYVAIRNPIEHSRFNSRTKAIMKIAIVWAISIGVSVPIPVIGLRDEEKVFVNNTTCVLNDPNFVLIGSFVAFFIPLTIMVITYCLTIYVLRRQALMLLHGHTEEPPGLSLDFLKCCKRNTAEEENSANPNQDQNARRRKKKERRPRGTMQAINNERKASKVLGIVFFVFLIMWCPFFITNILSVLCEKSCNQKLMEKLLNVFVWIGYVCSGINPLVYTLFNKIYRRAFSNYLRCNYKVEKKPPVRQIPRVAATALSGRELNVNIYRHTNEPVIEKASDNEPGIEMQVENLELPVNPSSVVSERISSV

Test [2] addresses human 5-HT2C receptor (Homo sapiens, UniProt P28335). The conditions noted are these: reference compounds; calcium mobilization. A general note: Calcium assays in cells follow changes in intracellular calcium, usually with a dye or a luminescent sensor.

Usually Ki stands for a dissociation constant, usually derived from enzyme kinetics or from competition with a known ligand. The EC50 is the midpoint of the concentration-response curve.

Substance “1-(2,5-dimethoxy-4-iodophenyl)isopropylamine [DOI, reference compound]” came in with an inhibition constant Ki in test [1] of 6.2 nM. Further, the EC50 in test [2] turned out to be 0.5 nM.

The values are drawn from patent US7365095B2, “Chromane and chromene derivatives and uses thereof” (Wyeth, priority 2005, dated 2008).
